Assay: in vivo paclitaxel release from stent (explanted stents, total drug load by HPLC)
Conditions: normalized for 3 mm×16 mm stent

- initial release in the first day (amount): about 1.5 μg
SMILES: CC(=O)O[C@H]1C(=O)[C@@]2(C)[C@H]([C@H](OC(=O)c3ccccc3)[C@]3(O)C[C@H](OC(=O)[C@H](O)[C@@H](NC(=O)c4ccccc4)c4ccccc4)C(C)=C1C3(C)C)[C@]1(OC(C)=O)CO[C@@H]1C[C@@H]2O [paclitaxel]

— patent US20070191935A1, “Drug Delivery Stent with Extended In Vivo Drug Release” (Conor Medsystems, Inc., priority 2006, published 2007)
